This is an account of results in US12350272B2, “Pyridopyrimidinone derivatives for use as AXL inhibitors” (OSCOTEC INC., priority 2018, dated 2025).

Assay [1] concerns MDA-MB-231 cells. Nature of the assay: Cell viability assay (ATPLite), MDA-MB-231. The assay is classed as cell-based. The following applies: Homo sapiens, 72 hour incubation. How it is done:
(§1) Compounds of Formula (I) as obtained above are tested for their effects on inhibition of proliferation of Axl-harboring triple-negative breast cancer cell lines (MDA-MB-231 and Hs578T) and Axl negative breast cancer cell lines (MCF7). Axl is a member of the TAM (TYRO3-Axl-MER) family of receptor tyrosine kinases, which, when activated, can increase tumor cell survival, proliferation, migration and invasion, angiogenesis, and tumor-host interactions. Upon GAS6 binding to Axl, Axl subsequently activates the signaling pathways downstream such as phosphoinositide 3-kinase (PI3K), RAt sarcoma (RAS), and extracellular signal regulated kinase (ERK).
(§2) For cell viability assay, MDA-MB-231 and Hs578T cells expressing human Axl were obtained from the American Type Culture Collection (ATCC, Manassas, VA). This cell line was maintained with an Roswell Park Memorial Institute (RPMI) medium (HYCLONE™) containing 10% bovine calf serum (BCS; HYCLONE™) supplemented iron. The cells were seeded at 2×10^4 cells in 96-well culture plates, and serially diluted compounds were then added. After a 72 hour incubation period at 37° C., cell viability was measured using the ATPLite 1 step assay (PERKIN-ELMER™) that is based on the quantification of ATP from viable cells. […]

The test system of assay [2] is Hs578T cells. Nature of the assay: Cell viability assay (ATPLite), Hs578T. The assay is classed as cell-based. Particulars: Homo sapiens, Hs-578T; 72 hour incubation. As to the method:
as §1, §2
(In ATP-based viability assays light output follows the ATP content of the culture.)

In general, GI50 refers to the concentration at which growth is held to half of that of the control. Lower therefore signals more potent growth inhibition. Consider `CN1CCC(Nc2nc(Nc3ccc(Oc4ccccc4)cc3)c3c(=O)[nH]cc(Br)c3n2)CC1` [Compound 222, 8-bromo-2-((1-methylpiperidin-4-yl)amino)-4-((4-phenoxyphenyl)amino)pyrido[4,3-d]pyrimidin-5(6H)-one], for which the GI50 in assay [1] and in assay [2] was 3.1 to 10 µM in each case.
